Drawing on patent US6056942A, “5-HT1A ligands” (John Wyeth & Brother, Ltd., priority 1993, dated 2000), this text covers IC50 for 2 molecules.

By UniProt entry, the sequences of proteins in these tests, tags left out.
UniProt P19327, whole entry: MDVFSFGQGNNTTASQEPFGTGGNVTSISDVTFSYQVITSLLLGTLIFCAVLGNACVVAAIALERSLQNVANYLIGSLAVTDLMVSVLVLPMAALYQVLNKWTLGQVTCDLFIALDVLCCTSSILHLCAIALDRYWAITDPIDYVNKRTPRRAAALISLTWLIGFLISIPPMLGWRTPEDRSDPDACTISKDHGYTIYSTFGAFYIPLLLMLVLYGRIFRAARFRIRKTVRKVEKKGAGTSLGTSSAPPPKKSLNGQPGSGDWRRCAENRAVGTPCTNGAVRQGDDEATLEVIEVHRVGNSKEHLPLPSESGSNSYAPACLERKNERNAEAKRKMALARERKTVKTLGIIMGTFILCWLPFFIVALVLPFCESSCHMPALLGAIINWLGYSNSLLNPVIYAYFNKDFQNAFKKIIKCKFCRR

This assay deals with 5-HT1A binding site (Rattus norvegicus, UniProt P19327). Description: biochemical.

`COc1ccc2[nH]cc(C3=CCNCC3)c2c1` [RU24969] yielded an IC50 of 10 to 100 nM.
Take `NCCc1c[nH]c2ccc(O)cc12` [Compound 5-HT]: the 50% inhibitory concentration (IC50) was in the range of 10 to 100 nM.

As usually defined, the IC50 is the concentration that gives 50% inhibition. A higher IC50 goes with weaker potency in that assay.
